The target in the assay is hTRPV3 (Homo sapiens, UniProt Q8NET8). The settings on record: read-out: EC50 for activation of TRPV3.

Sequences of proteins named here, by UniProt entry; tags and fusion partners are left off. A change or cut given only in a name is not applied to a line headed by its entry.
UniProt Q8NET8: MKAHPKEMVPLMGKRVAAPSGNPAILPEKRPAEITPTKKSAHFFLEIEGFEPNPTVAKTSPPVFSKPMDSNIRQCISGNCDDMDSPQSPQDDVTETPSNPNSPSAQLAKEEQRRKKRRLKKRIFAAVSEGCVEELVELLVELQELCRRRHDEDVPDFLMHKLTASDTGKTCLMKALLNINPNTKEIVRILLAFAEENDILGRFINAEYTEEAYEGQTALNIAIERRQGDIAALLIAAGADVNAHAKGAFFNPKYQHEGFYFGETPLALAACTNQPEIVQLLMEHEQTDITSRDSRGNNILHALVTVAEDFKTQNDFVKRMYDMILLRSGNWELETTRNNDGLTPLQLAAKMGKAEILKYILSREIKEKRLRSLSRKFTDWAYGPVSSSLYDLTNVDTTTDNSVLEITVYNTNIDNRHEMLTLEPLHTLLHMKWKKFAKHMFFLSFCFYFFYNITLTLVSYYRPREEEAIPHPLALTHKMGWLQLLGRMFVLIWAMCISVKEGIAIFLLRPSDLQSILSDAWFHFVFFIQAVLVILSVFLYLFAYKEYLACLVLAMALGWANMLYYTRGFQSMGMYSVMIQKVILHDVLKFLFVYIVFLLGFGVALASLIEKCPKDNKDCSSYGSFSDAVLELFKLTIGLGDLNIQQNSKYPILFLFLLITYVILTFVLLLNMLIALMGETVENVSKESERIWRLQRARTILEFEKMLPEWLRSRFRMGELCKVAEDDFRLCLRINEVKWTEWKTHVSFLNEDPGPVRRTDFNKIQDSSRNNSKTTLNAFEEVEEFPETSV

Results on 1 substance are retold here after publication PMC3223389 (Frontiers in Pharmacology, 2011).

By EC50 is commonly meant the concentration at which the effect is half-maximal.

As for 2-Aminoethoxydiphenyl borate [2-APB], the concentration for a half-maximal effect (EC50) is 61.1 ± 7.6 µM.
